## Antibody variant affinities, Ab-14 light chain, assay 1

Target peptide (SARS-CoV-2 spike, HR2 region): PDVDLGDISGINAS

Ab-14 is the parent antibody, in scFv form: VH, then three GGGGS repeats, then VL. The heavy chain is unchanged in all variants.
VH: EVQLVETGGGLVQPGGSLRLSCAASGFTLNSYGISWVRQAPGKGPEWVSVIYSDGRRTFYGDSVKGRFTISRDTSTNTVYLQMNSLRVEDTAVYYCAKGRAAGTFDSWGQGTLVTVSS
VL: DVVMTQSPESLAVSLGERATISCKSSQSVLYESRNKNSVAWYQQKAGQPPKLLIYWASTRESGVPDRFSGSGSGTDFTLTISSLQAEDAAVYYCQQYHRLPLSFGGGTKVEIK

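The parent was found by panning a naive human phage display library on the peptide. Library AAYL50 holds single substitutions and randomly drawn double and triple substitutions in the CDRs. The scFvs were displayed on barcoded MATa yeast, the peptide on MATalpha yeast. The frequency of each diploid, read from paired DNA barcodes, reflects how well the two displayed proteins bind. Read counts were normalised to the haploid input and turned into Kd by a linear fit to BCL2-family pairs of known affinity, for each replicate. Each pool was mated in three replicate cultures.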

Each variant is given by its three light chain CDRs, as the data file delimits them; those of the parent are KSSQSVLYESRNKNSVA, WASTRES, QQYHRLPLS. This list gathers variants with a substitution at R34 (VL, numbered from residue 1). Values are log10 of the apparent Kd in nM; lower means stronger binding. "nd" marks a missing value. The strain was present, yet no cells mated with the target were sequenced in that replicate, which points to weak or no binding.

With KSSQSVLYESPNKNSVA | WASTRES | QSVHRLPLS the result was 0.19, 0.47, 0.37 (controls 4 of 9). The variant KSSQSVLYESANKNNVA | WAKTRES | QQYHRLPLS showed 0.31, 0.02, 0.61 (controls 0 of 9). The variant KKSQSVLYHSGNKNSVA | WASTRES | QQYHRLPLS gave 2.12, 2.45, 2.45 (controls 0 of 9). The variant KSLQSVLYESLNANSVA | WASTRES | QQYHRLPLS gave 1.58, 1.54, 1.72 (controls 0 of 9). The variant KSSQSVLYESSNKNSVA | WASTRES | QQGHRLPFS showed 0.05, 0.39, 0.24 (controls 1 of 9). For KSSQSVLYESSNKNSVA | WASERES | QQYSRLPLS, the assay gave 0.03, 0.72, 0.03 (controls 4 of 9). The variant KSSQSVLYESGNKNSVA | WASTRES | QQYHILPLA gave 3.72, 2.86, 3.00 (controls 4 of 9).

The variant KVSQSVLYEPENKNSVA | WASTRES | QQYHRLPLS showed 1.32, 1.43, 1.43 (controls 3 of 9). For KSSQSVLYESSNKNSVA | WAYARES | QQYHRLPLS, the assay gave 0.26, 0.86, 0.77 (controls 1 of 9). The variant KSSGSVLYESQNKNSVA | WASTRIS | QQYHRLPLS showed 0.66, 0.86, 0.81 (controls 6 of 9). With KSSQSVLYESANKNSVA | WASTRES | QFYHRLPSS the result was nd, nd, nd (controls 2 of 9). With KISQSVLYESANKNSVA | WASTRES | QIYHRLPLS the result was nd, nd, nd (controls 0 of 9). For KSSQSVLYESHNKNSVA | WYSTRES | HQYHRLPLS, the assay gave nd, nd, nd (controls 1 of 9). The variant KSSQSVLYESTMKNSVA | WASTRES | QQYHRLPHS gave nd, nd, nd (controls 1 of 9).

The variant KSSQSVLYESENKNSVA | WISCRES | QQYHRLPLS showed nd, nd, nd (controls 0 of 9). With KSSQSVLRESWNKNSVH | WASTRES | QQYHRLPLS the result was nd, nd, nd (controls 0 of 9). With KSSQSVLYESKNKNSHA | WASTRES | RQYHRLPLS the result was nd, nd, nd (controls 1 of 9). For KSSQSVLYESVNKNSVA | WASTRES | QQYLRLPLS, the assay gave 2.04, 1.89, 1.99 (controls 2 of 9). With KSSQSVLYESMNKNSVA | WANTRES | QQYHGLPLS the result was 1.22, 1.45, 1.57 (controls 0 of 9). For KSSQSVLYESHNKNSVA | WASTRES | QQYHNLWLS, the assay gave nd, 5.65, 5.75 (controls 5 of 9). The variant KSSQSVLYESINKGSVA | WASTRES | QQYHRLWLS showed nd, 3.84, nd (controls 0 of 9).

The variant KSSQSVLYESLNQNSVA | WASTRSS | QQYHRLPLS showed 0.18, 0.48, 0.35 (controls 1 of 9). The variant KSSQDVLYESNNKNSVA | WASTRES | TQYHRLPLS gave 0.12, 0.31, 0.13 (controls 2 of 9). With KSSQSVLYESTLKQSVA | WASTRES | QQYHRLPLS the result was nd, nd, nd (controls 1 of 9). The variant KSMQSVLYECENKNSVA | WASTRES | QQYHRLPLS showed -0.11, 0.23, -0.01 (controls 1 of 9). The variant KSSQSVLYESQNKNSVA | WASTRES | QQYHRKNLS gave 1.33, 1.33, 1.37 (controls 4 of 9). For KSSQSVLYEGINYNSVA | WASTRES | QQYHRLPLS, the assay gave 0.61, 0.84, 0.63 (controls 2 of 9). The variant KSSQSVLYESANKNTVA | WASTRES | QQYHRLPLS gave 1.34, 1.59, 1.56 (controls 3 of 9).

The variant KSSKSVLYESPNKASVA | WASTRES | QQYHRLPLS showed 1.14, 1.41, 1.49 (controls 2 of 9). The variant KSSQSVQYESYNKMSVA | WASTRES | QQYHRLPLS gave 2.22, 3.19, 2.46 (controls 1 of 9). The variant NSSQSVLYESMNKNSVA | WASTREV | QQYHRLPLS gave 0.82, 0.89, 0.93 (controls 3 of 9). The variant KSSQSVLYESTNKNSVA | WASTRET | QQYHRLPSS showed nd, nd, nd (controls 2 of 9). The variant KSSQSVLYESQNKNSVA | WASTRES | QQYHREPYS gave nd, nd, nd (controls 1 of 9). The variant KSSQSVLYESYNKNSVA | WASTRES | QPYHRLPLS showed 5.08, nd, nd (controls 5 of 9). The variant KSSQSVLYESQNKNSVA | WASTRES | QQYHRSCLS showed 4.72, nd, 5.48 (controls 1 of 9).

The variant KSSQSVLYESSNKNSVA | WASTRES | GQYHRLPLS showed 0.76, 1.09, 0.88 (controls 1 of 9). For KSSSSVLYESFNKNSVA | WFSTRES | QQYHRLPLS, the assay gave 4.59, nd, nd (controls 1 of 9). The variant KSSDSVLYESINKNSVA | WASTRES | QQYHRLRLS showed nd, 4.05, nd (controls 3 of 9).

Repeated from above, the 2 best binders with a signal in all replicates:

CDR-L1,CDR-L2,CDR-L3,"log10 Kd, replicates",control signals
KSMQSVLYECENKNSVA,WASTRES,QQYHRLPLS,"-0.11, 0.23, -0.01",1 of 9
KSSQDVLYESNNKNSVA,WASTRES,TQYHRLPLS,"0.12, 0.31, 0.13",2 of 9

For reference, the parent read 0.65 as the reference entry and 1.68 as a member of this library. Empty control strains, which show no peptide, gave a signal in 18% of pairings with library AAYL50; the median was 4.19 and 95% of these signals were weaker than 2.99. No background was subtracted. Also given: how often the same scFv was detected with the empty control strains.

Values reported by Engelhart et al. 2022, doi:10.1038/s41597-022-01779-4 (FLAb copy).